In the Kinase Knowledgebase extract (Sharma et al. 2016) one finds IC50 data, which are given here for two compounds.

By UniProt entry, the sequences of proteins in these tests, tags left out. Where a name states a change or a piece, a line headed by the entry shows the natural chain unless it says otherwise.
UniProt O00329: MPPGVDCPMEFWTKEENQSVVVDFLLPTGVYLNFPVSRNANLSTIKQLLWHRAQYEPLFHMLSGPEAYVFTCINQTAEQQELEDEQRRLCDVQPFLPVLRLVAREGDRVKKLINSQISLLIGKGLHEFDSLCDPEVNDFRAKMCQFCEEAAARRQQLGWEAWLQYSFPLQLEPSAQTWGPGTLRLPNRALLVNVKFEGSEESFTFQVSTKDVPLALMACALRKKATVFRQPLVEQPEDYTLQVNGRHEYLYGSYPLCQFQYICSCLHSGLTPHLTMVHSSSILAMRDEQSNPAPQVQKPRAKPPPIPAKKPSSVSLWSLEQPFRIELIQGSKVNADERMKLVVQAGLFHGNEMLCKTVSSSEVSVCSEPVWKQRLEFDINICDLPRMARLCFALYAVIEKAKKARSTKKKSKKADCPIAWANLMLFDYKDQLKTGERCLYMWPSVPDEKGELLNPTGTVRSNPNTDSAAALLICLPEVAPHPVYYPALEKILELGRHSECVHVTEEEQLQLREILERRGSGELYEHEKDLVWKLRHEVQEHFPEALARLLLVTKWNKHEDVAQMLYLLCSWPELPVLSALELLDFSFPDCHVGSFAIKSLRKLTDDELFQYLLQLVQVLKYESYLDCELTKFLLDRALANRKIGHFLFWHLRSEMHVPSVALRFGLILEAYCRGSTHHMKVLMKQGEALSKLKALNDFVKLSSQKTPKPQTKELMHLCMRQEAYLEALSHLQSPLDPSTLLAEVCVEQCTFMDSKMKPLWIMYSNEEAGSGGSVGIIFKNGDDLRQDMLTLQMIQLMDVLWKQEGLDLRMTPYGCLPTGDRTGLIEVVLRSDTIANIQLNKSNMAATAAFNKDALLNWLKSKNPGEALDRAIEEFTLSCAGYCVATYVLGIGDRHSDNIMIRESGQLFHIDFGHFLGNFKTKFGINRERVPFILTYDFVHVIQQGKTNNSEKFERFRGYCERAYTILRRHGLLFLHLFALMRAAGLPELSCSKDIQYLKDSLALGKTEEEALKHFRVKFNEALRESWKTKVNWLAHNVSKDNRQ

The assay concerns the target PIK3CD (Human) (UniProt O00329). The assay is described as follows: Assessment of PIK3CD Kinase Activity.

One may read the IC50 as the concentration needed to halve the response being measured. Read a low IC50 as inhibition by little substance. Consider `COc1cc(COc2cc3cccc(C)c3nc2-c2ccccc2C)cc(OC)c1`, for which the IC50 was in the range of 500 to 1500 nM.

Take `Cc1ccccc1-c1nc2c(C)cccc2cc1CNc1ncnc2[nH]nc(I)c12`: the concentration for half-maximal inhibition (IC50) is 50 to 250 nM.
